Source: publication PMC7723054
This is one part of the list.

T1: LIN28A (human?, UniProt Q9H9Z2 1-209)
T1 sequence: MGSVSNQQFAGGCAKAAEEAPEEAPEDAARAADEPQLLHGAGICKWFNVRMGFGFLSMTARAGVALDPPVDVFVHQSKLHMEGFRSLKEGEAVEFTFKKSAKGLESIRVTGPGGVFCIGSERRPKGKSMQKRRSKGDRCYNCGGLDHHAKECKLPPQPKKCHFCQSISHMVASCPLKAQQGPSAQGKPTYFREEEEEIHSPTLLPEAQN

T2: CIRBP (Homo sapiens, UniProt Q14011 1-172)
T2 sequence: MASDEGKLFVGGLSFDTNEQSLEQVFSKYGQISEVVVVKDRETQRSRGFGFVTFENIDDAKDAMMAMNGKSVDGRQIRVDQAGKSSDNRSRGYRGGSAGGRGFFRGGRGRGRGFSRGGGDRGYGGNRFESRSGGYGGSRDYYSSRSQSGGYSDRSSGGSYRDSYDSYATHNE

T3: DHX36 (Homo sapiens, UniProt Q9H2U1 1-1008)
T3 sequence: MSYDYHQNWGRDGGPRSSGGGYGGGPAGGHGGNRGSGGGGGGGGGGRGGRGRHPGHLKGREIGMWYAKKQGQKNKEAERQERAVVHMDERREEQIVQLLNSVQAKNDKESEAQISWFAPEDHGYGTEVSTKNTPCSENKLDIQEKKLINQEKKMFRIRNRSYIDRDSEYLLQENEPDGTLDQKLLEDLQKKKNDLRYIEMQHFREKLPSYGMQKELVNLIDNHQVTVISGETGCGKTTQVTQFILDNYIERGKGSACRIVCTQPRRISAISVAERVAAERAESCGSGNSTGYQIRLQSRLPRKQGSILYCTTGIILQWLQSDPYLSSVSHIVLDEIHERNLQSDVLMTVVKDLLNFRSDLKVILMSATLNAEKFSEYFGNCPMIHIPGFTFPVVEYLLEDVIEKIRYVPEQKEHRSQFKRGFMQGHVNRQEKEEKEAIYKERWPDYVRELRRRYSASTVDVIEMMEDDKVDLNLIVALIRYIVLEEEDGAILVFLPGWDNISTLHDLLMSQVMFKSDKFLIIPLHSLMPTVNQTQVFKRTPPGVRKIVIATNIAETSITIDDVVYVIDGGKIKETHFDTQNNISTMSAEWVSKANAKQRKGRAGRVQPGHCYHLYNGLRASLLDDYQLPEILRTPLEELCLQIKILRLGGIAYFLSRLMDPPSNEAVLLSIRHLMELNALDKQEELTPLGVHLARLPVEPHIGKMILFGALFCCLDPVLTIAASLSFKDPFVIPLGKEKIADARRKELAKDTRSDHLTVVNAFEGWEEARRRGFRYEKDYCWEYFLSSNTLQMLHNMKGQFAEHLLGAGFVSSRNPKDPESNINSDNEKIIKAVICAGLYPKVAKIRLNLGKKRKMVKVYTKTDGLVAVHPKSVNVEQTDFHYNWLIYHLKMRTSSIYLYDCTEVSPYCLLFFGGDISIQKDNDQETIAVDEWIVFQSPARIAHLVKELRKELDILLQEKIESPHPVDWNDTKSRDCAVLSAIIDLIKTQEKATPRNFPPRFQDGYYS

B1: hsa-mir-541 (structured_RNA)
RNA: GGGAAUAGAGGCACGAACUGAACUUAGUGGUGUACGAAGUUUCAGCCCCACUCCAAAGUUCACAGAAUGGGUGGGCUGAAGCUUCGUGCAC
B2: hsa-mir-4506 (structured_RNA)
RNA: GGGAGAUGUAGCCGCGCUCACUGUUAGCGGUGUACGAAGUUUCAGCGGUUCAAGUUUGGCUCCAUCUUUAUGAAAGCUGAAGCUUCGUGCAC
B3: hsa-mir-425 (structured_RNA)
RNA: GGGACGGGAGCACUGGCAGAUACUUAACGGUGUACGAAGUUUCAGCCGUUGAGUGGGCACCCGAGAAGCCAUCGGCUGAAGCUUCGUGCAC
B4: hsa-mir-665 (structured_RNA)
RNA: GGGCAUCACAAUACGGAGCCAUGUGCUCGGUGUACGAAGUUUCAGCACCCAGGACUCUUUCAUGACCAGCUGAAGCUUCGUGCAC
B5: hsa-mir-4281 (structured_RNA)
RNA: GGGAAGGCCAGUACUGUGCUAGACAGCAGGUGUACGAAGUUUCAGCAGCUGGGGCCGGGUGCUGAAGCUUCGUGCAC
B6: hsa-mir-6745 (structured_RNA)
RNA: GGGAAAUAUGGCCCAUCGCUAUGCGUCCGGUGUACGAAGUUUCAGCCCUAGUGGCUAGCCCUGGGUCUAGCAGCCUAUGGCAGUGUCUGGUAAACACUGGUGGAGUCCUGGGGCUGAAGCUUCGUGCAC
B7: hsa-mir-103b-2 (structured_RNA)
RNA: GGGAAGUACCGCGAAAGGAAACCUUGUUGGUGUACGAAGUUUCAGCUGCUUGACCUGAAUGCUACAAGGCAGCUGAAGCUUCGUGCAC
B8: hsa-mir-4761 (structured_RNA)
RNA: GGGAAGUAGUACCGCGGAUAUAAUAGUCGGUGUACGAAGUUUCAGCCUGACCCGUUGUCAGACCUGGAAAAAGGGCCGGCUGUGGGCAGGGAGGGCUGAAGCUUCGUGCAC
B9: hsa-mir-3934 (structured_RNA)
RNA: GGGAAGCUAGAUACGCCACCCGUUGGAUGGUGUACGAAGUUUCAGCGGCAGGAGGCAGUGAAGUAACUUGCGCUGAAGCUUCGUGCAC
B10: hsa-mir-1538 (structured_RNA)
RNA: GGGACUGCUUAGAUAAGGAAACGCACCCGGUGUACGAAGUUUCAGCGCCUCGCUUCCUGCCGGCGCGGCGCUGAAGCUUCGUGCAC
B11: hsa-mir-6800 (structured_RNA)
RNA: GGGACGUGGAGCAGAACUAAACUUAACUGGUGUACGAAGUUUCAGCGCGGGGUGUGGUGGGGCUGGGGCUGGCCCCCUCCUCACACCUCGCUGAAGCUUCGUGCAC

Target: U1A (Homo sapiens, UniProt P09012)
Experiment: FOREST: bead pull-down of RNA structure library v1, barcode microarray; U1A/LIN28A: 20 mM HEPES pH 7.5, 80 mM KCl, 20 mM NaCl, 10% glycerol, 2 mM DTT, 0.1 ug/uL BSA, 4 C; BG4/CIRBP/DHX36: 10 mM Tris-HCl pH 7.5, 100 mM KCl (or LiCl),; high values mean tight binding

| Binder | binding signal [z-score] |
| --- | --- |
| B1 | 2.12 |
| B2 | 0.511 |
| B3 | 0.509 |
| B4 | 0.466 |
| B5 | 0.505 |
| B6 | 0.488 |
| B7 | 0.474 |
| B8 | 0.49 |
| B9 | 0.47 |
| B10 | 0.482 |
| B11 | 0.473 |

Target: T1, LIN28A
Experiment: as above

| Binder | binding signal [z-score] |
| --- | --- |
| B1 | 0.432 |
| B2 | 1.85 |
| B3 | 0.298 |
| B4 | -0.501 |
| B5 | -1.53 |
| B6 | 0.434 |
| B7 | -0.514 |
| B8 | 1.7 |
| B9 | 0.639 |
| B10 | 0.195 |
| B11 | 0.305 |

Target: T2, CIRBP
Experiment: as above

| Binder | binding signal [z-score] |
| --- | --- |
| B1 | 0.475 |
| B2 | 0.217 |
| B3 | -0.207 |
| B4 | -1.81 |
| B5 | -0.878 |
| B6 | -0.53 |
| B7 | -0.954 |
| B8 | 2.17 |
| B9 | -0.0978 |
| B10 | 0.822 |
| B11 | 0.678 |

Target: T3, DHX36
Experiment: as above

| Binder | binding signal [z-score] |
| --- | --- |
| B1 | -0.445 |
| B2 | -0.448 |
| B3 | -0.152 |
| B4 | 0.338 |
| B5 | -0.12 |
| B6 | 1.05 |
| B7 | -0.805 |
| B8 | 1.43 |
| B9 | 0.174 |
| B10 | 0.287 |
| B11 | 3.43 |
